## Apparent affinities of Ab-14 variants for a coronavirus HR2 peptide

The target is the same throughout: PDVDLGDISGINAS, from the HR2 region of SARS-CoV-2 spike.

Ab-14 is the parent antibody, in scFv form: VH, then a (GGGGS)3 linker, then VL. The light chain is unchanged in all variants.
VH: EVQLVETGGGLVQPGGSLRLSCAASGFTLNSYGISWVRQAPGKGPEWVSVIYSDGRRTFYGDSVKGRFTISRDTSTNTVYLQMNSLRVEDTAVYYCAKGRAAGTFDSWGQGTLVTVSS
VL: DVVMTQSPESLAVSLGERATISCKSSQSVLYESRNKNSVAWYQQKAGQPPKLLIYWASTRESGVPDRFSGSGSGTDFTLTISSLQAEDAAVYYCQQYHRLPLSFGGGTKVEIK

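The parent was found by panning a naive human phage display library on the peptide. Designed CDR sequences, proposed from the first random library and measured here. Several design methods are mixed in this list. Affinity was read by AlphaSeq, a pooled yeast mating assay with surface-displayed partners. After mating in shaken culture at 30 °C for 16 h, diploids were selected and their barcode pairs sequenced. Each replicate has its own calibration line, from reference interactions of the BCL2 family. Each pool was mated in six replicate cultures.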

The parent's heavy chain CDRs are GFTLNSYGIS, VIYSDGRRTFYGDSVK, GRAAGTFDS; each variant's own CDRs replace them letter for letter.
Scale: log10 of Kd in nM, estimated from mating counts; low values are strong binders.
Replicates are averaged; those with no signal do not enter the mean.
"nd" means that the variant was in the library but no mating with the target was seen in any replicate; the authors take this as a sign of poor binding, and no number exists.
Some sequences occur more than once in the pool; their replicates are pooled.

GFALNEYGIS / VIYSDGKRTFYGDSVK / GRTAGTFDS: -0.30 (6 of 6 replicates).
GFSLDEMGIS / VIYADGQRTMYQASVK / GQNIGNVFV: nd (0 of 6 replicates).
KFKLNSYGIS / VIYSDGRRTFYQDSVK / GQTAGTFDS: nd (0 of 6 replicates).
GFDLNEYGIS / VIYADGMRTAYADKVK / GETAGTFDI: -0.26 (6 of 6 replicates).
GFNLNSYGIS / VIYSDGRRTFYIDSVK / GWTAGTFDS: 1.50 (6 of 6 replicates).
GFTLNEYGIS / VIYSDGRRTFYIDSVK / GQAAGTFDS: 0.63 (5 of 6 replicates).
GETLNSYGIS / VIYSDGRRTFYGDSVK / TRASGTFDS: nd (0 of 6 replicates).
GFSLNSYGIS / VIYSDGRRTFYGDSVK / GQEAGTFDD: 0.45 (6 of 6 replicates).
GFDLDEYGIS / VIYADGMRTAYADNVK / GNQAGTFDL: -0.44 (6 of 6 replicates).
GFDLDEYGIS / VIYADGVRTAYADSVK / GNEAGTFDV: 0.90 (6 of 6 replicates).
GNDINEYGIS / VIYADGMRTAYLNDVK / GQLGGLFFM: nd (0 of 6 replicates).
GFTLNSYGIS / VIYSDGRRTFYSDSVK / GVAGGTFDI: 1.53 (1 of 6 replicates).
GFDLNEYGIS / VIYADGVRTAYADSVK / GQNAGTFDM: -0.32 (6 of 6 replicates).
GFSLNSYGIS / VIYSDGRRTAYHDSVK / GRAGGTFDS: nd (0 of 6 replicates).
GFNIDEYGIS / VIYADGMRTFYSNRVK / GVVNGGTIS: nd (0 of 6 replicates).
GFGLDEYGIS / VIYADGKRYAYKNSVK / GGVGVNGLH: 0.60 (6 of 6 replicates).
GFTLNSYGIS / VIYSDGRRTFYADSVK / GHEAGTFDS: 0.66 (6 of 6 replicates).
GFDLNEYGIS / VIYADGRRTAYADDVK / GENAGTFDL: -0.52 (6 of 6 replicates).
GFDLNEYGIS / VIYADGRRTFYKDSVK / GQIAGTFDQ: -0.58 (6 of 6 replicates).
GFTLNDYGIS / VIYSDGRRTFYGDSVK / GRNAGTFDS: 1.04 (12 of 12 replicates).
GMNLDEYGIS / VIYADGFRSHYAEKVK / GQQGGFFIK: nd (0 of 6 replicates).
GFELNSYGIS / VIYSDGRRTFYIDSVK / GTVAGTFDS: -0.07 (6 of 6 replicates).
GFTLNEYGIS / VIYSDGRRTFYGDRVK / GRAAVTFDV: nd (0 of 6 replicates).
GFTLNSYGIS / VIYSDGERKFYGDSVK / GRSAGTFDS: 0.50 (6 of 6 replicates).
GFKLDEYGIS / VIYADGHRVAYSNQVK / GDNMGNMVE: nd (0 of 6 replicates).
GFALNTYGIS / VIYSDGRRTAYGDSVK / GRQAGTFDS: 0.43 (6 of 6 replicates).
GFELNSYGIS / VIYSDGRRTFYGDSVK / GKTAGTFDT: 1.95 (1 of 6 replicates).
GKSLDEYGIS / VIYADGLRSVYANSVK / GQFTDTLDL: nd (0 of 6 replicates).
GFDLDEYGIS / VIYADGSRTAYSDSVK / GENAGTFDI: 1.37 (6 of 6 replicates).
GFDLNEYGIS / VIYADGRRTFYADSVK / GNHAGTFNV: -0.09 (6 of 6 replicates).
GFTPDSFGIS / VIYSDGRRTFYGDKVK / DRAAGTFDS: nd (0 of 6 replicates).
GFSLDEMGIS / VIYADGQRTAYVDNVK / SVNGVVVFL: nd (0 of 6 replicates).
GFDLNEYGIS / VIYADGQRTFYADSVK / GEVAGTFDT: -0.05 (6 of 6 replicates).
GFDLNEYGIS / VIYADGRRTFYADSVK / GSNAGTFLV: 0.59 (4 of 6 replicates).
GFTLNSYGIS / VIYSDGMRTFYSDSVK / GKAAGTFDT: 0.23 (6 of 6 replicates).
GFTLNSYGIS / VIYSDGRRTAYGDSVK / WRAAGTFDS: 0.79 (6 of 6 replicates).
GFDLDEYGIS / VIYADGVRTAYADSVK / GNEAGTFDI: 0.74 (6 of 6 replicates).
GFNLDEYGIS / VIYADGMRRAYVDEVK / GYFSDIQLM: nd (0 of 6 replicates).

A selection of 5 entries from above:

The variant GFDLNEYGIS / VIYADGRRTFYKDSVK / GQIAGTFDQ gave -0.58 (6 of 6 replicates).
The variant GFSLDEMGIS / VIYADGQRTMYQASVK / GQNIGNVFV gave nd (0 of 6 replicates).
The variant KFKLNSYGIS / VIYSDGRRTFYQDSVK / GQTAGTFDS gave nd (0 of 6 replicates).
The variant GFTLNDYGIS / VIYSDGRRTFYGDSVK / GRNAGTFDS gave 1.04 (12 of 12 replicates).
The variant GFGLDEYGIS / VIYADGKRYAYKNSVK / GGVGVNGLH gave 0.60 (6 of 6 replicates).

Values of this round are not directly comparable with the first-round values of the same sequences.
Three control strains display no target. For all heavy chain designs, 1% of the pairings with them gave a signal, with a median of 2.08 and one signal in twenty below 0.84, so weak values seen in few replicates may be background.
The authors averaged sequences with at least three values out of six and counted those with two or fewer as poor binders.

Reference: Li et al. 2023, doi:10.1038/s41467-023-39022-2. File: FLAb, binding data.